Experimental findings from BindingDB's records for doi:10.1016/0024-3205(83)90740-3 (University of Toronto, 1983) are described below.

By UniProt entry, the sequences of proteins in these tests, tags left out.
UniProt P14842, whole entry: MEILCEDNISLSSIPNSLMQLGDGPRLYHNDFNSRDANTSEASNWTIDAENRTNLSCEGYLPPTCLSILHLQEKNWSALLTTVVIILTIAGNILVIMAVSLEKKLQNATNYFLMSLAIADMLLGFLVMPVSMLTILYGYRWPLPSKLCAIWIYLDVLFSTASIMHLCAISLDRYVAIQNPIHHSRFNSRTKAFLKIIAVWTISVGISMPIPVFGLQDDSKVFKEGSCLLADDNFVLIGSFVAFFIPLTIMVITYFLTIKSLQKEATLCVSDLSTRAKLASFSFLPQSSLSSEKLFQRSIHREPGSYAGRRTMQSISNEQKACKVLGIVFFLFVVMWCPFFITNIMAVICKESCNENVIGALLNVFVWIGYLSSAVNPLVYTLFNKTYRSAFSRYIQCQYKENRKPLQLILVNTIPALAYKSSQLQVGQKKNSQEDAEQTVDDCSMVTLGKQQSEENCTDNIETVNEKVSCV

Where “and” joins values, the source holds several entries; their conditions need not be identical. Equal values may be shown once.

As usually defined, the Ki is a dissociation constant, usually derived from enzyme kinetics or from competition with a known ligand. A low value points to a stronger hold on the target.

The target in this experiment is 5-hydroxytryptamine receptor 2A (Rattus norvegicus, UniProt P14842).
As for `O=C(CCCN1CCC2(CC1)C(=O)NCN2c1ccccc1)c1ccc(F)cc1` [8-[4-(4-fluorophenyl)-4-oxidanylidene-butyl]-1-phenyl-1,3,8-triazaspiro[4.5]decan-4-one], the Ki is 1.24 nM and 1.04 nM.
As for `CCN(CC)C(=O)[C@@H]1C=C2c3cccc4[nH]cc(c34)C[C@H]2N(C)C1` [(4R,7R)-N,N-diethyl-6-methyl-6,11-diazatetracyclo[7.6.1.0^{2,7}.0^{12,16}]hexadeca-1(16),2,9,12,14-pentaene-4-carboxamide], the figure is 5.47 nM and 3.16 nM and 3.23 nM; as for `COc1ccc2[nH]cc(CCN)c2c1` [tryptamine, 5-Methoxy], 647 nM and 215 nM and 92 nM.
